# Ab-14 heavy chain CDR variants: yeast mating affinities

Data: MIT Lincoln Laboratory AlphaSeq set, Li et al. 2023, doi:10.1038/s41467-023-39022-2, as distributed in FLAb.

Target peptide (SARS-CoV-2 spike, HR2 region): PDVDLGDISGINAS

Parent scFv Ab-14: VH joined to VL by a 15-residue (Gly4Ser)3 linker. Changes lie in the heavy chain CDRs alone.
VH: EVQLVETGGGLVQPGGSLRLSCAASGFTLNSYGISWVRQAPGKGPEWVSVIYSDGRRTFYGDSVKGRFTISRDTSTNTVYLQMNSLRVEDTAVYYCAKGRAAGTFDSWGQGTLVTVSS
VL: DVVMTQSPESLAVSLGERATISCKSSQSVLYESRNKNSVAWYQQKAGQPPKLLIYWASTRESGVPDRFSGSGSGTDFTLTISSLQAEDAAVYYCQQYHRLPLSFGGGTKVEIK

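Phage display of a naive human antibody library on the peptide gave the parent. The variants were designed computationally from a first round of random CDR variants and then made and measured. Group labels follow the data file (Ctrl: baseline library sampled from a position-specific scoring matrix, with some repeated check sequences; Rand: our label for a block that the file lists under HC and that is probably the random mutants of the ten best first-round binders; En: ensemble of fine-tuned language models; GP: Gaussian process model; GPLM: also part of the Gaussian process libraries; HC: hill climbing; Gen: genetic algorithm; Gibbs: Gibbs sampling; a sequence that several methods proposed may carry one label only). In AlphaSeq, yeast of one mating type display the scFv and yeast of the other type display the target. Mating (16 h, 30 °C) was followed by selection of diploids and sequencing of their barcodes. Scores were corrected for input abundance and mapped to Kd with protein pairs of known affinity run in the same pool. Each pool was mated in six replicate cultures.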

Each variant is given by its three heavy chain CDRs, as the data file delimits them; those of the parent are GFTLNSYGIS, VIYSDGRRTFYGDSVK, GRAAGTFDS. Values are log10 of the apparent Kd in nM; lower means stronger binding. Averages over replicates are reported, and they cover detected replicates only. "not detected" marks a missing value. The strain was present, yet no cells mated with the target were sequenced in any replicate, which points to weak or no binding. Values of this round are not directly comparable with the first-round values of the same sequences. The authors' rule: three or more of the six replicates give a measured affinity, fewer mean a poor binder. Background: pairings of all heavy chain designs with three empty control strains gave a value in 1% of cases (median 2.08, 5th percentile 0.84). Values in that range, when seen in few replicates, are hard to tell from nonspecific mating.

CDR-H1,CDR-H2,CDR-H3,group,mean log10 Kd (nM),seen in
GFDLDEYGIS,VIYADGKRTAYSDSVK,GNQAGTFDL,En_Gen,-0.38,6 of 6
GFDLNEYGIS,VIYADGKRTFYSDKVK,GNVAGTFDV,En_HC,-0.39,6 of 6
GFSLNQYGIS,VIYSDGRRTFYSDSVK,GRAAGMFDS,GPLM_HC,2.09,6 of 6
GFTLNSYGIS,VIYSDGRRTFYGDDVK,GQLAGTFDS,GP_HC,not detected,0 of 6
GFDLNEYGIS,VIYADGVRTAYANSVK,GNNAGTFDV,En_Gen,-0.82,6 of 6
GFDLNEYGIS,VIYADGMRTSYADDVK,GTNAGTFDV,En_Gen,-0.25,6 of 6
GFDLNEYGIS,VIYADGLRTAYADDVK,GNTAGTFDV,En_Gen,-0.52,6 of 6
GFDLNEYGIS,VIYADGMRTFYTDSVK,GGNAGTFDS,En_HC,-0.26,6 of 6
GEDLDEYGIS,VIYADGRRQYYANNVK,GDIADVDDL,En_Gibbs,1.52,5 of 6
GFTLNDYGIS,VIYSDGRRTFYGDSVK,GRAAGAFDS,Ctrl,not detected,0 of 6
GFTLNSYGIS,VIYSDGRRTFYADSVK,GREAGTFET,Ctrl,0.42,6 of 6
GFDLNSYGIS,VIYSDGRRTFYSDSVK,LRAAGTFDS,Ctrl,2.78,6 of 6
KFSLNSYGIS,VIYSDGRRTFYADSVK,GWTAGTFDS,GPLM_Gen,0.66,6 of 6
GFDLDEYGIS,VIYADGSRTAYSDSVK,GETAGTFDV,En_Gen,-0.14,6 of 6
GMSLLEYGIS,VIYADGRRTAYTDSFK,GGSVKDTFV,En_Gibbs,0.28,6 of 6
GFDLNEYGIS,VIYADGKRTAYADSVK,GNVAGTFVQ,En_Gen,-0.17,6 of 6
GFDLNEYGIS,VIYADGVRTAYIDSVK,GEVAGTFDS,En_HC,0.28,6 of 6
GFNLNEYGIS,VIYADGMRTFYSDSVK,GEVAGTFDV,En_HC,-0.07,6 of 6
GFDLNSYGIS,VIYSDGRRTFYGDSVK,GKQAGTFDE,GP_Gibbs,-0.03,6 of 6
GFELNSYGIS,VIYADGRRTFYGDSVK,GRTAGTFDF,GP_Gibbs,0.03,6 of 6
GFGLDEYGIS,VIYADGQRTFYADSVK,GENAGTFLM,En_HC,1.77,3 of 6
GFTLMDYGIS,VIYSDGRRTQYIDSVK,GRAAGTFDS,Rand,0.94,4 of 6
GFDLNSYGIS,VIYSDGRRTFYQDMVK,GRTAGTFDS,GP_Gibbs,1.09,6 of 6
GFTLNSYGIS,VIYSDGRRTFYADDVK,GKNAGTFDS,GP_Gibbs,0.80,6 of 6
GFDLDEYGIS,VIYADGRRTFYQDSVK,GEVAGTFDS,En_HC,-0.68,6 of 6
GFQLNDYGIS,VIYSDGRRTFYGDSVK,GRKAGTFIS,GP_HC,1.77,3 of 6
GMDLQEFGIS,VIYADGVREYYTDDFK,GQIAGTFDL,En_Gibbs,not detected,0 of 6
GFGLNQYGIS,VIYSDGRRKFYGDSVR,NRAKGTFDQ,Ctrl,not detected,0 of 6
GFTLDSYGIS,VIYSDGRRTFYGDSVK,GKAAGTFDV,GP_HC,0.66,6 of 6
GFSLNDYGIS,VIYSDGRRTFYGDSVK,GRAALTFDV,GPLM_HC,2.27,1 of 6
GFDLNEYGIS,VIYADGRRTFYADSVK,GNVGGTFDV,En_HC,-0.17,6 of 6
GFTLNSYGIS,VIYSDGRRTWYGDSVK,GREAWTFDQ,Ctrl,0.64,6 of 6
GFDLDEYGIS,VIYADGIRTNYSNSVK,GTIGGTFFQ,En_Gibbs,2.33,3 of 6
GFTLNSYGIS,VIYSDGRRTFYGDNVK,GDAAITFKS,Ctrl,not detected,0 of 6
GFTLNSYGIS,VIYSDGRRTFYSDSVK,GQVAGTFDD,GP_Gibbs,0.49,6 of 6
GFDLNEYGIS,VIYADGMRTAYTDSVK,GNTAGTFDI,En_Gen,-0.52,6 of 6
GFDLNEYGIS,VIYADGMRTAYADDVK,GEIAGTFDV,En_Gen,-0.59,6 of 6
GFTLNEYGIS,VIYSDGRRTFYGDSVK,GRNAVTFDQ,Rand,not detected,0 of 6
GFDLNSYGIS,VIYSDGRRWFYGDSVK,GQTAGTFDS,GP_Gibbs,1.91,4 of 6
GFDLNEYGIS,VIYADGSRKAYADSVK,GNQAGTFDV,En_Gen,-0.75,6 of 6
GFSLNEYGIS,VIYSDGRRTFYGDSVK,GRAAVTFDT,GPLM_HC,not detected,0 of 6
GFDLNEYGIS,VIYADGKRTFYADSVK,GEYAGTFDI,En_HC,0.18,6 of 6
GTTLNSYGIS,VIYSDGRRTYYTDSVK,GQAAGTFDS,Ctrl,2.48,1 of 6
GFDLNEYGIS,VIYADGVRTAYQDSVK,GNNAGTFDV,En_Gen,-0.09,6 of 6
GFELNSYGIS,VIYSDGRRTFYGDSVK,GKEAGTFDN,GP_Gibbs,0.39,6 of 6
GFDLNEYGIS,VIYADGQRTAYSDSVK,GEVAGTFDI,En_Gen,-0.30,6 of 6
GFDLNEYGIS,VIYADGRRTFYTDSVK,GQVAGTFDV,En_HC,-0.57,6 of 6
GFDLDEYGIS,VIYADGRRTAYADDVK,GENAGTFDL,En_Gen,-0.26,6 of 6
GFDLEEYGIS,VIYADGLRVFYADSVK,GGFDGYKFR,En_Gibbs,not detected,0 of 6
GFDLNEYGIS,VIYADGLRTSYADSVK,GNVAGTFDV,En_Gen,-0.42,6 of 6
GFVLNSYGIS,VIYSDGRRTFYADSVK,GREAGTFDS,GPLM_Gen,0.30,6 of 6
KFSLNSYGIS,VIYSDGRRTFYADSVK,GREAGTFDS,GPLM_Gen,0.71,6 of 6
GFDLDEYGIS,VIYADGSRTFYADSVK,GENAGTFDV,En_Gen,-0.27,6 of 6
GFTLNEYGIS,VIYSDGWRTFYTDKVK,GKAACTFDI,Ctrl,not detected,0 of 6
GFSLNSYGIS,VIYSDGKRTFYGDNVK,GQAAGTFDL,GP_Gibbs,1.21,5 of 6
GFTLNEYGIS,VIYSDGRRTFYGDSVK,GREAGTFDT,GPLM_Gen,-0.42,6 of 6
GFDLNEYGIS,VIYADGRRTAYADSVK,GTNAGTFDL,En_Gen,-0.55,6 of 6
GFDLDEYGIS,VIYADGRRTAYADSVK,GEVAGTFDM,En_Gen,-0.43,6 of 6
GFGLDEYGIS,VIFADGERKYYTDNVK,GHFGEDGIV,En_Gibbs,2.22,2 of 6
GFTLNDYGIS,VIYSDGRRTFYSDSVK,GRAVGTFDS,GP_HC,not detected,0 of 6
GFTLNSYGIS,VIYADGRRVWYSDSVK,GRAAGPFCQ,Ctrl,not detected,0 of 6
GFDLNEYGIS,VIYADGMRTYYSDSVK,GENAGTFDI,En_Gen,0.45,6 of 6